Source: EP3878460A1, “GREEN TEA EXTRACT HAVING MODIFIED CONSTITUENT CONTENT AND COMPOSITION COMPRISING SAME” (priority 2018, dated 2020)

System: hepatocytes (HepG2 cells)
Experiment: Hepacytotoxicity, cell viability by MTS assay
Conditions: HepG2 cells, 10, 50, 100 or 200 µM, 24 hours; calculated from cell viability
Method: In order to investigate the hepatotoxicity of the high-temperature-processed green tea extract obtained in Example 1 (sample 2), hepatocytes (HepG2 cells) acquired from Korean Cell Line Bank were seeded onto a 96-well plate (Falcon) with 1×10^5 cells per well and cultured for 24 hours in a 5% CO2 incubator at 37 °C. Then, after treating with the sample 1 or sample 2 at 5, 10, 25, 50 or 100 µg/mL and culturing further for 24 hours, the medium was removed and cell viability was investigated using a CellTiter 96 AQueous One Solution cell proliferation assay kit (MTS, Promega Co. Madison, WI, USA). After treating the cells with 20 µL of a CellTiter 96 AQueous One Solution cell proliferation assay kit (MTS, Promega Co. Madison, WI, USA) solution added to 100 µL of RPMI1640 (Lonza), the number of live cells was quantified by measuring absorbance at 490 nm. The cell number or cell viability (%) was calculated by the following equation. Cell viability (%) = (absorbanceofsample-treatedgroup−absorbanceofreagentalone)/(absorbanceofnon-treatedgroup−absorbanceofreagentalone) × 100 [formula]
After treating the cells with 20 µL of a CellTiter 96 AQueous One Solution cell proliferation assay kit (MTS, Promega Co. Madison, WI, USA) solution added to 100 µL of RPMI1640 (Lonza), the number of live cells was quantified by measuring absorbance at 490 nm. […]

Substance: catechin gallate [CG]
- LD50: 260.8 µM

Substance: catechin
- LD50: 569.0 µM
